The record followed here is ChEMBL document CHEMBL1140833, “Potent heteroarylpiperidine and carboxyphenylpiperidine 1-alkyl-cyclopentane carboxamide CCR2 antagonists” (Bioorg Med Chem Lett, 2008).

The chains behind the UniProt entries cited, without tags or fusion partners. Where a name states a change or a piece, a line headed by the entry shows the natural chain unless it says otherwise.
UniProt Q12809: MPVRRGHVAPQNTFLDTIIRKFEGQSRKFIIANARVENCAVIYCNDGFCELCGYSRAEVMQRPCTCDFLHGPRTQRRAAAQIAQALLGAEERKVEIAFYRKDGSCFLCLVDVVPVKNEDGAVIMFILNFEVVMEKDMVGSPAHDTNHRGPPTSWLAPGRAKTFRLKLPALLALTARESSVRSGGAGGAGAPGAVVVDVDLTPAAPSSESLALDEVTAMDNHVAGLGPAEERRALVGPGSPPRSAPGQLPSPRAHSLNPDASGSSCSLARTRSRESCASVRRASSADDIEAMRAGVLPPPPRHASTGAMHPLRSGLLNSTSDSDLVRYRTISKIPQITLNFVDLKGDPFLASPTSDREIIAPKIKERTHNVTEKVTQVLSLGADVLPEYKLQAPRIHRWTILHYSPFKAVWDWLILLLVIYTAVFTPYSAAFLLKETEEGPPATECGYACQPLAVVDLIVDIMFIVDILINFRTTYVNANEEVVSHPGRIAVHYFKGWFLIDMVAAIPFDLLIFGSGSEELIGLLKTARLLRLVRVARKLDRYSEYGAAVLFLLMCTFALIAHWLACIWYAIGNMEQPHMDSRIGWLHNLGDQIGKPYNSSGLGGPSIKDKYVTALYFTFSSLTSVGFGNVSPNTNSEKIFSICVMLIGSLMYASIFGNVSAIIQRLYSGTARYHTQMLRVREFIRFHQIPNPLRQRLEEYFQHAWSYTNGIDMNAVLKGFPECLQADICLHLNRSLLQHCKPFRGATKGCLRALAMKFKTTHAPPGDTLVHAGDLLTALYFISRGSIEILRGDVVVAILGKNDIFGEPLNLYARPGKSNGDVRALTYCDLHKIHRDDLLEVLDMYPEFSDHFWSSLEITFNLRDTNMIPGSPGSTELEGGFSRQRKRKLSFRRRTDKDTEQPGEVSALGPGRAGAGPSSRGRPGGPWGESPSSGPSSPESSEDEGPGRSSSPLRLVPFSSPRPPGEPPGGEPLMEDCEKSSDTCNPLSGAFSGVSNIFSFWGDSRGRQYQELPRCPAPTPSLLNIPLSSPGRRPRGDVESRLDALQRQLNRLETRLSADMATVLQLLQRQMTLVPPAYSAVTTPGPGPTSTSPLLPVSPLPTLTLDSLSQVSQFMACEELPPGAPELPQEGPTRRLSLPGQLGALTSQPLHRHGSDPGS

This assay addresses Voltage-gated inwardly rectifying potassium channel KCNH2 (Homo sapiens, UniProt Q12809). The assay is described as follows: Displacement of [[…]]MK499 from human ERG expressed in HEK cells. The class given is cell-based, HEK293.

Each structure is given as a SMILES string. pIC50: −log10 of the molar value.

In turn, `CC(C)(O)[C@]1(C(=O)NCc2cc(C(F)(F)F)cc(C(F)(F)F)c2)CC[C@@H](N2CCC(c3cncnc3)CC2)C1` gave a negative logarithm of the IC50 (pIC50) of 6.07.

As to `CC(C)[C@]1(C(=O)NCc2cc(C(F)(F)F)cc(C(F)(F)F)c2)CC[C@@H](N2CCC(c3cccnc3)CC2)C1` (relative stereo), the pIC50 is 6.65.

As usually defined, the pIC50 is the IC50 on a negative log10 scale, so that one unit is a factor of ten. A higher pIC50 goes with a small IC50.
